Earlier results on 1 molecule are cited in patent US20120295965A1, “FUSED THIOPHENES AS DUAL INHIBITORS OF EGFR/VEGFR AND THEIR USE IN THE TREATMENT OF CANCER” (priority 2009, published 2012).

SMILES strings stand for the structures.

The data set addresses EGFR (Homo sapiens, UniProt P00533). To be noted: known inhibitors; cited from earlier work.

`COc1cc2ncnc(Nc3cccc(Cl)c3)c2cc1OC` [AG1478]: the “strength as EGFR inhibitor” value is listed as “potent EGFR inhibitor”.
